The term Ki denotes a dissociation constant, usually derived from enzyme kinetics or from competition with a known ligand.

Experiment [1] deals with Carbonic anhydrase 2 (Homo sapiens, UniProt P00918). Description: Inhibition of human full-length cytosolic CA2 after 6 hrs by stopped flow CO2 hydration assay.
In experiment [2] the target is Carbonic anhydrase 9 (Homo sapiens, UniProt Q16790). Description: Inhibition of human recombinant CA9 after 6 hrs by stopped flow CO2 hydration assay.
Experiment [3] addresses Carbonic anhydrase 12 (Homo sapiens, UniProt O43570). Description: Inhibition of human recombinant CA12 after 6 hrs by stopped flow CO2 hydration assay.

SMILES strings stand for the structures.

`O=c1ccc2ccc(O)cc2o1` [UMBELLIFERONE]: the Ki in experiment [1] is greater than 100 µM.
On to `O=c1ccc2ccccc2o1` [COUMARIN], for which the Ki in experiment [2] and in experiment [3] was greater than 500 µM throughout.

These data come from ChEMBL document CHEMBL1938342 (J Med Chem, 2011).
